Measured values reported in patent publication US20020155084A1, “Nanoemulsion formulations” (The Regents of the University of the Michigan, priority 2000, published 2002).

Test system: hairy mouse skin

Question: Which “transport rate relative to inulin” value (2:1 nanoemulsion, FIG. 9) does the source give for `NC[C@H]1CC[C@H](C(=O)O)CC1` [tranexamic acid] here?
Answer: roughly 1.2 times

Question: And the marker permeation slope (2:1 nanoemulsion, aqueous phase 0.05 M HEPES pH 7.4, 5 μg/ml inulin or 3 μg/ml tranexamic acid, FIG. 9)?
Answer: 0.283 % per hour per square centimeter

Question: What about the “difference in permeation rates versus inulin” value (in 5% sodium lauryl sulfate (SLS), FIG. 10) of the same molecule?
Answer: 5 fold
